Experimental data: patent US8895585B2, “Nicotinamide derivative or salt thereof” (FUJIFILM Corporation, priority 2010, dated 2014)

What was measured:
[1] = molecular target: glutathione S-transferase (GST)-fused full-length human Syk protein (Homo sapiens, UniProt P43405); test: Syk enzyme assay
Protocol: A glutathione S-transferase (GST)-fused full-length human Syk protein (Carna Biosciences), which had been generated using a Baculovirus expression system, was used in the Syk enzyme assay.
15 μl of a reaction solution (1.2 ng Syk, 20 mM HEPES, 10 mM MgCl2, 50 mM NaCl, 2 mM DTT, 0.05% BSA, pH 7.0) containing a Syk protein and a predetermined concentration of a test compound was shaken for 2 minutes, and it was then left at rest at room temperature for 13 minutes. Thereafter, 5 μl of Biotin-EDPDYEWPSA-NH2 (final concentration: 0.4 μM) serving as a substrate peptide and 5 μl of ATP (final concentration: 27 μM) were added to the reaction solution, and the obtained mixture was then shaken for 2 minutes. The reaction solution was further left at rest at room temperature for 40 minutes, so as to carry out an enzyme reaction.
Thereafter, 50 μl of a reaction termination solution [5 μg/ml Streptavidin, 0.18 μg/ml PT66-K, 30 mM HEPES (pH 7.0), 150 mM KF, 75 mM EDTA, 0.15% BSA, 0.075% Tween20], which contained Streptavidin-Xlent (Cisbio) and Mab PT66-K (Cisbio), was added to the reaction solution to terminate the enzyme reaction. At the same time, the reaction solution was left at rest at room temperature for 1 hour, so as to carry out an antigen-antibody reaction. Thereafter, using EnVision (PerkinElmer), the time-resolved fluorescence was measured at 615 nm and 665 nm, so that the phosphorylation of the substrate peptide was measured.
In addition, the following are standards for evaluating IC50 of Syk-inhibitory activity used in Table 21. • A: Up to 10 nM • B: 10 to 50 nM • C: 50 to 100 nM • D: 100 to 1000 nM The set of numbers (XYZ-xyz) given in each Example number column indicates the corresponding Example number (Example XYZ-xyz) in Table 21.

THP-1 cells [2] = test: TNFα generation assay; assay type: cell-based, human
Protocol: THP-1 cells (2×10^5 cells/ml), which were human monocytoid cells, were cultured in the presence of 10 ng/ml IFN-γ (Roche) for 2 days, so that the cells were induced to differentiate into macrophage-like cells. The differentiation-induced THP-1 cells were recovered, and the cells (1×10^6 cell/ml) were then allowed to react with a predetermined concentration of test compound at room temperature for 30 minutes. On the other hand, 100 μl of human IgG (10 μg/ml, SIGMA-ALDRICH) diluted with PBS was added to a 96-well plate, and it was then incubated at room temperature overnight. Thereafter, the resultant was washed with PBS twice to produce a human IgG-coated plate. Subsequently, a cell solution that contained a compound was inoculated on the human IgG-coated plate (5×10^4 cells/well), and it was then cultured for 7 hours. Thereafter, the cultured solution was recovered, and the amount of TNFα secreted into the culture solution was then measured by the ELISA method (Roche/R & D Systems) or the AlphaLISA method (PerkinElmer).
In addition, the following are used in Table 22 to denote criteria for evaluating IC50 in TNFα generation assay. • A: Up to 65 nM • B: 65 to 130 nM • C: 130 to 200 nM

THP-1 cells [3] = test: Antibody-dependent phagocytosis assay; details: read-out: IC50 upon phagocytosis inhibition, THP-1 cells induced to differentiate with IFNγ, opsonized Escherichia coli, Table 23
Protocol: THP-1 cells (2×10^5 cells/ml) which are human monocyte-like cell line were cultured in the presence of 10 ng/ml IFNγ for 2 days, so that the cells were induced to differentiate into macrophage-like cells. THP-1 cells that had been induced to differentiate were collected. The cells (5×10^4 cells/well) were reacted with test compounds having given concentrations at room temperature for 30 minutes. Thereafter, Escherichia coli (Life Technologies) labeled with a pH-sensitive dye (pHrodo) was subjected to opsonization using an anti-Escherichia coli antibody (Molecular Probes). Then, the resultant was added to THP-1 cells mixed with test compounds that had been induced to differentiate, followed by incubation at 37° C. for 3 hours. At the time of addition of opsonized Escherichia coli, cell-permeable fluorescent dye (Calcein AM) were simultaneously added thereto, and phagocytosis of opsonized Escherichia coli in viable cells was quantitatively determined using an IN Cell Analyzer.
In addition, the following are used in Table 23 to denote standards for evaluating IC50 upon phagocytosis inhibition. • A: Up to 1 μM • B: 1 to 3 μM • C: 3 to 6 μM

[4] = read-out: IC50 of Syk-inhibitory activity, Test Example 1
[5] = read-out: IC50 in TNFα generation assay, Table 22
[6] = read-out: IC50 of Syk-inhibitory activity, Test Example 1, tested form: HCl

| pIC50 [1, 4] | pIC50 (THP-1 cells [2]; [5]) | pIC50 (THP-1 cells [3]) | pIC50 [1, 6] | pIC50 (THP-1 cells [2]; read-out: IC50 in TNFα generation assay, Table 22, tested form: HCl) | pIC50 (THP-1 cells [3]; tested form: HCl) | Structure (SMILES) |
| --- | --- | --- | --- | --- | --- | --- |
| > 8.00 | > 7.19 | 5.52 to 6.00 | – | – | – | Cn1ncc2cc(Nc3nc(N[C@@H]4CCCC[C@@H]4N)c(F)cc3C(N)=O)ccc21 (relative stereo) |
| > 8.00 | – | 5.52 to 6.00 | – | – | – | NC(=O)c1cc(F)c(N[C@@H]2CCCC[C@@H]2N)nc1Nc1cccc2ncccc12 (relative stereo) |
| > 8.00 | – | 5.22 to 5.52 | – | – | – | NC(=O)c1cc(F)c(N[C@@H]2CCCC[C@@H]2N)nc1Nc1cc(Cl)cc(Cl)c1 |
| > 8.00 | – | 5.52 to 6.00 | – | – | – | NC(=O)c1cc(F)c(N[C@@H]2CCCC[C@@H]2N)nc1Nc1cccc(-n2nccn2)c1 (relative stereo) |
| – | – | – | > 8.00 | 6.89 to 7.19 | 5.52 to 6.00 | NC(=O)c1cc(F)c(N[C@@H]2CCCC[C@@H]2N)nc1Nc1ccc2[nH]ncc2c1 (relative stereo) |
| > 8.00 | – | 5.52 to 6.00 | – | – | – | Cc1nc2ccc(Nc3nc(N[C@@H]4CCCC[C@@H]4N)c(F)cc3C(N)=O)cc2s1 (relative stereo) |
| – | – | – | > 8.00 | – | 5.52 to 6.00 | COc1cc(Nc2nc(N[C@@H]3CCCC[C@@H]3N)c(F)cc2C(N)=O)cc(OC)c1 (relative stereo) |
| > 8.00 | – | 5.22 to 5.52 | – | – | – | Cc1cncc(Nc2nc(N[C@@H]3CCCC[C@@H]3N)c(F)cc2C(N)=O)c1 (relative stereo) [Example 6-49, 6-(cis-2-aminocyclohexylamino)-5-fluoro-2-(5-methylpyridin-3-ylamino)nicotinamide] |
| – | – | – | 7.30 to 8.00 | – | 5.52 to 6.00 | Cc1nc2ccc(Nc3nc(NCCN)c(F)cc3C(N)=O)cc2s1 [Example 6-21, 6-((2-aminoethyl)amino)-5-fluoro-2-((2-methylbenzo[d]thiazol-6-yl)amino)nicotinamide] |
| 7.30 to 8.00 | 6.89 to 7.19 | 5.22 to 5.52 | – | – | – | Cc1nn(C)c2ncc(Nc3nc(N[C@@H]4CCCC[C@@H]4N)c(F)cc3C(N)=O)cc12 (relative stereo) |
| > 8.00 | – | > 6.00 | – | – | – | COc1cc(Nc2nc(N[C@@H]3CCCC[C@@H]3N)c(F)cc2C(N)=O)cc(OC)c1 |
| > 8.00 | – | 5.52 to 6.00 | – | – | – | NC(=O)c1cc(F)c(N[C@@H]2CCCC[C@@H]2N)nc1Nc1ccc2c(c1)OCO2 (relative stereo) |

pIC50: −log10 of the molar value. Like-named read-outs stand apart in the source and are kept apart here.
